This experiment is filed under the species Ovis aries. Kind of experiment: Potency index, ratio of combretastatin A-4 IC50 to compound IC50 for inhibition of sheep brain tubulin polymerization.

Results on one molecule are retold here after ChEMBL document CHEMBL4138220, “A fluorine scan of a tubulin polymerization inhibitor isocombretastatin A-4: Design, synthesis, molecular modelling, and biological evaluation” (Eur J Med Chem, 2018).

Each structure is given as a SMILES string.

Turning to `C=C(c1ccc(OC(F)F)c(N)c1)c1cc(OC)c(OC)c(OC)c1`, the Ratio IC50 stood at 5.
